Tests used:
WM3928 cells = experiment: WM3928 Cell Proliferation Assay (1); details: read-out: WM3928 (1) IC50
Protocol: WM3928 Cell Proliferation Assay (1)
WM3928 cells (#WM3928-01-0001) are obtained from Rockland Immunochemicals Inc (Gilbertsville, PA). Briefly, cells were grown in MCDB 153 medium (Sigma, #M7403, St. Louis, MO) supplemented with 20% Leibovitz's L-15 (ThermoFisher #11415-064, Waltham, MA), 2% heat inactivated fetal bovine serum (ThermoFisher, #A3840001, Waltham, MA), 5 μg/mL Insulin (Bovine Pancreas) (Sigma, #I0516, St. Louis, MO), 1.68 mM Calcium Chloride (Sigma, #C-34006, St. Louis, MO) and 1% Penicillin/Streptomycin/L-Glutamine (ThermoFisher #10378016, Waltham, MA) at 37° C., 5% CO2, and 95% humidity. Cells are expanded until reaching 70-95% confluency at which point they are subcultured or harvested for assay use. A serial dilution of test compound is dispensed into a 96-well black clear bottom plate in triplicate. Three thousand cells are added per well in 200 μL complete growth medium in the 96-well plate. Plates are incubated for 67-72 hours at 37° C., 5% CO2, and 95% humidity. At the end of the incubation, 40 μL of a 440 μM solution of resazurin (Sigma, #199303, St. Louis, MO) in PBS is added to each well of the plate and plates are incubated for an additional 6-7 hours at 37° C., 5% CO2, and 95% humidity. Plates are read on a Synergy2 or equivalent reader (Biotek, Winooski VT) using an excitation of 540 nm and an emission of 600 nm. Data is analyzed using Prism software (GraphPad, San Diego, CA) to calculate IC50 values.

The chains behind the UniProt entries cited, without tags or fusion partners. Where a name states a change or a piece, a line headed by the entry shows the natural chain unless it says otherwise. A line that says so, or that is headed by a name, gives the form on record, which may keep a tag or linker. Residues count along the entry.
UniProt P15056, 416-766 limits assumed: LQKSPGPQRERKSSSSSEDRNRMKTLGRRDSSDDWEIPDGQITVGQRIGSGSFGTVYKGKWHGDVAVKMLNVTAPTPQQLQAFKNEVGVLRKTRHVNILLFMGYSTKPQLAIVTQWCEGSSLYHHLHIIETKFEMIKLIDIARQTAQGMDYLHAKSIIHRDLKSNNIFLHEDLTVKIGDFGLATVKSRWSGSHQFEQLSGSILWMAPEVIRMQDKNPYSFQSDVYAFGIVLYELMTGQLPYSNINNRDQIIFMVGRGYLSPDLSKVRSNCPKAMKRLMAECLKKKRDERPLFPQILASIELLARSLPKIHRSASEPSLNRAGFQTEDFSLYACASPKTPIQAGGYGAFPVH
UniProt P15056, 416-766 V600E limits assumed: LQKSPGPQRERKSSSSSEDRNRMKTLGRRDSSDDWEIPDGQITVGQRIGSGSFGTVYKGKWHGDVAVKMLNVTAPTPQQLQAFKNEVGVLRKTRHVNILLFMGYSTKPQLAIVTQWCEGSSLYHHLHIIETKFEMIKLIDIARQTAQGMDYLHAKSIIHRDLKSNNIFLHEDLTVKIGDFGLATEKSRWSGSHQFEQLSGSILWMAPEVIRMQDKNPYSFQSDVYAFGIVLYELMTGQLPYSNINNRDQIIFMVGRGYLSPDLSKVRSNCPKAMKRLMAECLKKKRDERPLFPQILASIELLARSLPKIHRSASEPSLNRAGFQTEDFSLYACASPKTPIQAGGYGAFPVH
UniProt P04049, 307-648 Y340D/Y341D limits assumed: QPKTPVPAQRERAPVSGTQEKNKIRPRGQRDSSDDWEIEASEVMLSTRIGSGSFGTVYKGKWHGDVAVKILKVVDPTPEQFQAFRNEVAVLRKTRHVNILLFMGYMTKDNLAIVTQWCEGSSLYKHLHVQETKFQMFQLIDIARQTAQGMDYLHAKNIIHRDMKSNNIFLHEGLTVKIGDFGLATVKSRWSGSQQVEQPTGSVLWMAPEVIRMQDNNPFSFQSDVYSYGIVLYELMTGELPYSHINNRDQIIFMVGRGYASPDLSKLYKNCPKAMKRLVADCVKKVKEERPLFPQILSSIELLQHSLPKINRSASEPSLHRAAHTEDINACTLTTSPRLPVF
UniProt P10398, 273-606 with tags or gaps Y301D/Y302D limits assumed: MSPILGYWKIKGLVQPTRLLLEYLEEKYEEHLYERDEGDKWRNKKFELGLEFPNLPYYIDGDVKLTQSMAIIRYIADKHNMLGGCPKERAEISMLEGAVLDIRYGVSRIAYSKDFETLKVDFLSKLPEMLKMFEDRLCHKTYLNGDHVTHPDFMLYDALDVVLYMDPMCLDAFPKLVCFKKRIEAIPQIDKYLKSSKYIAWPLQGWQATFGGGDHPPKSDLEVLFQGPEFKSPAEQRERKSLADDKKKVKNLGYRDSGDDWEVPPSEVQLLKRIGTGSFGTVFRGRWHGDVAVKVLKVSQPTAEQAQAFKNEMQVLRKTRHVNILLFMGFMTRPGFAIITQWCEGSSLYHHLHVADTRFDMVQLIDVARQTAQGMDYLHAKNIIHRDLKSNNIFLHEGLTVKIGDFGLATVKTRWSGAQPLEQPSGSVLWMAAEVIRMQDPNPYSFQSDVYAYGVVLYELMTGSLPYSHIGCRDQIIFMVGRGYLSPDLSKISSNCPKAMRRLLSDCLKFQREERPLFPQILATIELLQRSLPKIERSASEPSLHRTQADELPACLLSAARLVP

A375 cells = experiment: A375 Cell Proliferation Assay (1); details: read-out: A375 (1) IC50
Protocol: For Table J, “+” refers to an IC50 less than or equal to 100 nM; “++” refers to an IC50 greater than 100 nM and less than or equal to 500 nM; “+++” refers to an IC50 greater than 500 nM and less than or equal to 1000 nM; and “++++” refers to an IC50 greater than 1000 nM and less than or equal to 10000 nM. A375 Cell Proliferation Assay (1)
(§1) A375 cells (catalog (#CRL-1619) are obtained from the American Type Culture Collect (ATTC, Manassas, VA). Briefly, cells were grown in DMEM High Glucose supplemented with 10% characterized fetal bovine serum (Invitrogen, Carlsbad, CA) and 1% Penicillin/Streptomycin/L-Glutamine at 37° C., 5% CO2, and 95% humidity. Cells are expanded until reaching 70-95% confluency at which point they are sub-cultured or harvested for assay use. A serial dilution of test compound is dispensed into a 96-well black clear bottom plate in triplicate. Two thousand five hundred cells are added per well in 200 μL complete growth medium in the 96-well plate. Plates are incubated for 67-72 h at 37° C., 5% CO2, and 95% humidity. At the end of the incubation, 40 μL of a 440 μM solution of resazurin (Sigma, St. Louis, MO) in PBS is added to each well of the plate and plates are incubated for an additional 5-6 h at 37° C., 5% CO2, and 95% humidity. Plates are read on a Synergy2 or equivalent reader (Biotek, Winooski VT) using an excitation of 540 nm and an emission of 600 nm. Data is analyzed using Prism software (GraphPad, San Diego, CA) to calculate IC50 values.

H2405 cells = experiment: H2405 Cell Proliferation Assay (1); details: read-out: H2405 (1) IC50
Protocol: H2405 Cell Proliferation Assay (1)
as §1, with “H2405” for “A375”, “#CRL-5994)” for “(#CRL-1619)”, “RPMI 1640” for “DMEM High Glucose”, “5%” for “10%”, “Three” for “Two”, “thousand” for “thousand five hundred”

[1] = target: B-Raf (V600E) (SEQ. ID NO: 4) kinase (Homo sapiens (Human), UniProt P15056, V600E); experiment: Biochemical Assay for B-Raf (V600E) (1); details: read-out: BRAF VE (1) IC50, Table J, assay version (1)
Protocol: Biochemical Assay for B-Raf (V600E) (1)
Activity of B-Raf (V600E) (SEQ. ID NO: 4) kinase was determined spectroscopically using a coupled pyruvate kinase/lactate dehydrogenase assay that continuously monitors the ATP hydrolysis-dependent oxidation of NADH (e.g., Schindler et al., Science, 2000, 289, 1938-1942). Assays were conducted in 384-well plates (100 μL final volume) using 0.03 nM B-Raf (SignalChem), 1.5 units pyruvate kinase, 2.1 units lactate dehydrogenase, 1 mM phosphoenol pyruvate, 0.28 mM NADH, 30.1 nM MEK (SignalChem), and 1 mM ATP in assay buffer (100 mM Tris, Ph 7.5, 15 mM MgCl2, 0.5 mM DTT, 0.1% octyl-glucoside, 0.002% (w/v) BSA, and 0.002% Triton X-100). Inhibition of B-Raf (V600E) was measured by adding serial diluted test compound (final assay concentration of 1% DMSO). A decrease in absorption at 340 nm was monitored continuously for 6 h at 30° C. on a multi-mode microplate reader (BioTek). The reaction rate was calculated using the 3 to 4 h time frame. The reaction rate at each concentration of compound was converted to percent inhibition using controls (i.e., reaction with no test compound and reaction with a known inhibitor) and IC50 values were calculated by fitting a four-parameter sigmoidal curve to the data using Prism (GraphPad software).

[2] = target: C-Raf kinase (SEQ. ID NO: 3) (Homo sapiens (Human), UniProt P04049, Y340D/Y341D); experiment: Biochemical Assay for C-Raf (1); details: read-out: CRAF (1) IC50; Table J, assay version (1)
Protocol: Biochemical Assay for C-Raf (1)
(§2) Activity of C-Raf kinase (SEQ. ID NO: 3) was determined spectroscopically using a coupled pyruvate kinase/lactate dehydrogenase assay that continuously monitors the ATP hydrolysis-dependent oxidation of NADH (e.g., Schindler et al., Science, 2000, 289, 1938-1942). Assays were conducted in 384-well plates (100 μL final volume) using 0.43 nM C-Raf (Sigma), 1.5 units pyruvate kinase, 2.1 units lactate dehydrogenase, 1 mM phosphoenol pyruvate, 0.28 mM NADH, 30.1 nM MEK (SignalChem), and 1 mM ATP in assay buffer (100 mM Tris, Ph 7.5, 15 mM MgCl2, 0.5 mM DTT, 0.1% octyl-glucoside, 0.002% (w/v) BSA, and 0.002% Triton X-100). Inhibition of C-Raf was measured by adding serial diluted test compound (final assay concentration of 1% DMSO). A decrease in absorption at 340 nm was monitored continuously for 6 h at 30° C. on a multi-mode microplate reader (BioTek). The reaction rate was calculated using the 4 to 5 h time frame. The reaction rate at each concentration of compound was converted to percent inhibition using controls (i.e., reaction with no test compound and reaction with a known inhibitor) and IC50 values were calculated by fitting a four-parameter sigmoidal curve to the data using Prism (GraphPad software).

[3] = target: B-Raf kinase (SEQ. ID NO: 2) (Homo sapiens (Human), UniProt P15056); experiment: Biochemical Assay for B-Raf (1); details: read-out: BRAF (1) IC50; Table J, assay version (1)
Protocol: Biochemical Assay for B-Raf (1)
as §2, with “B-Raf” for “C-Raf”, “2)” for “3)”, “0.13” for “0.43”

[4] = target: A-Raf kinase (SEQ. ID No: 1) (Homo sapiens (Human), UniProt P10398, Y301D/Y302D); experiment: Biochemical Assay for A-Raf (1); details: read-out: ARAF (1) IC50; Table J, assay version (1)
Protocol: Biochemical Assay for A-Raf (1)
as §2, with “A-Raf” for “C-Raf”, “No: 1)” for “NO: 3)”, “5.55” for “0.43”, “pH” for “Ph”

| SMILES | IC50 (WM3928 cells) | IC50 (A375 cells) | IC50 (H2405 cells) | IC50 [1] | IC50 [2] | IC50 [3] | IC50 [4] |
| --- | --- | --- | --- | --- | --- | --- | --- |
| Cc1ccc(NC(=O)c2cc(C(F)(F)F)c(=O)n(C)c2)cc1-c1cc(-c2ccnc(NC(=O)C3CC3)c2)cnn1 | 100 to 500 nM | 1000 to 10000 nM | 1000 to 10000 nM | – | – | – | – |
| Cc1ccc(NC(=O)c2ccnc(C(C)(C)C#N)c2)cc1-c1ccnc(-c2ccnc(NC(=O)CC#N)c2)n1 | – | < 100 nM | – | < 100 nM | < 100 nM | < 100 nM | 100 to 500 nM |

Reference: patent publication US12319655B2, “RAF kinase inhibitors and methods of use thereof” (Deciphera Pharmaceuticals, LLC, priority 2021, dated 2025)
